Results on ten molecules are retold here after ChEMBL document CHEMBL1150411, “4-(Phenylaminomethylene)isoquinoline-1,3(2H,4H)-diones as potent and selective inhibitors of the cyclin-dependent kinase 4 (CDK4)” (J Med Chem, 2008).

The subject of one assay is HCT-116. As to the kind of experiment: Antiproliferative activity against human HCT116 cells by SRB method. The class given is functional, cell-based. The procedure, abridged:
(§1)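 Cell growth in 96-well plates measured by sulforhodamine B: cells TCA-fixed, stained with 0.4% SRB, washed in 1% acetic acid, bound dye solubilized in 10 mM Tris, absorbance read. MCF-7 kept in RPMI with 10% FBS, 37 °C, 5-7% CO2.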

In the next assay the test system is MCF7. As to the kind of experiment: Antiproliferative activity against human MCF7 cells by SRB method. The class given is functional, cell-based. The procedure, abridged: as §1
For orientation: The SRB assay estimates cell density from bound dye.

pIC50: −log10 of the molar value.

Usually pIC50 stands for −log10 of the IC50, conventionally taken in molar units. As to `O=C1NC(=O)c2ccc(Nc3ccccc3)cc2/C1=C/Nc1ccc(CN2CCCCC2)cc1`, the negative logarithm of the IC50 (pIC50) with HCT-116 is 5.82; in the assay on MCF7, 5.64.

`CC1CN(c2ccc(N/C=C3\C(=O)NC(=O)c4ccc(I)cc43)cc2)CCN1C` (stereo not drawn): the negative logarithm of the IC50 (pIC50) with MCF7 is 5.72.

In the case of `C[C@@H]1CN(c2ccc(N/C=C3\C(=O)NC(=O)c4ccc(I)cc43)cc2)C[C@H](C)N1C`, the pIC50 in the assay on HCT-116 is 5.68; with MCF7 it was 5.89.

In the assay on HCT-116, `O=C1NC(=O)c2ccc(-c3ccc(O)cc3)cc2/C1=C/Nc1ccc(CN2CCCCC2)cc1` showed a pIC50 of 5.80.

`C[C@@H]1CN(c2ccc(N/C=C3\C(=O)NC(=O)c4ccc(I)cc43)cc2)C[C@H](C)N1`: the values for the pIC50 in the assay on HCT-116 and in the assay on MCF7 were 6.12 and 5.80, respectively.

With `CN1CCN(c2ccc(N/C=C3\C(=O)NC(=O)c4ccc(-c5ccoc5)cc43)cn2)CC1`, the pIC50 was 5.68 in the assay with HCT-116 and 5.77 in the assay on MCF7.

For `CN1CCN(c2ccc(N/C=C3\C(=O)NC(=O)c4ccc(-c5ccccc5)cc43)cc2)CC1`, the pIC50 in the assay on HCT-116 is 5.55; in the assay on MCF7, 5.14.

As to `O=C1NC(=O)c2ccc(-c3ccccc3)cc2/C1=C/Nc1ccc(CN2CCCCC2)cc1`, the pIC50 in the assay on HCT-116 was 5.62; in the assay with MCF7, 5.54.

Take `CN1CCN(c2ccc(N/C=C3\C(=O)NC(=O)c4ccc(I)cc43)cc2)CC1`: the pIC50 in the assay on HCT-116 is 5.55; with MCF7 it was 5.60.

In the case of `CN1CCN(c2ccc(N/C=C3\C(=O)NC(=O)c4ccc(-c5ccoc5)cc43)nc2)CC1`, the pIC50 is 6.12 in the assay with HCT-116 and 5.80 in the assay on MCF7.
